Experimental findings from PubChem BioAssay AID1224863 (Southern Research Institute, 2016) are described below.

By UniProt entry, the sequences of proteins in these tests, tags left out. Chains listed by the source or under a name are the forms on record and can include a tag or linker.
UniProt P13569, with tags, fused parts or gaps F508del: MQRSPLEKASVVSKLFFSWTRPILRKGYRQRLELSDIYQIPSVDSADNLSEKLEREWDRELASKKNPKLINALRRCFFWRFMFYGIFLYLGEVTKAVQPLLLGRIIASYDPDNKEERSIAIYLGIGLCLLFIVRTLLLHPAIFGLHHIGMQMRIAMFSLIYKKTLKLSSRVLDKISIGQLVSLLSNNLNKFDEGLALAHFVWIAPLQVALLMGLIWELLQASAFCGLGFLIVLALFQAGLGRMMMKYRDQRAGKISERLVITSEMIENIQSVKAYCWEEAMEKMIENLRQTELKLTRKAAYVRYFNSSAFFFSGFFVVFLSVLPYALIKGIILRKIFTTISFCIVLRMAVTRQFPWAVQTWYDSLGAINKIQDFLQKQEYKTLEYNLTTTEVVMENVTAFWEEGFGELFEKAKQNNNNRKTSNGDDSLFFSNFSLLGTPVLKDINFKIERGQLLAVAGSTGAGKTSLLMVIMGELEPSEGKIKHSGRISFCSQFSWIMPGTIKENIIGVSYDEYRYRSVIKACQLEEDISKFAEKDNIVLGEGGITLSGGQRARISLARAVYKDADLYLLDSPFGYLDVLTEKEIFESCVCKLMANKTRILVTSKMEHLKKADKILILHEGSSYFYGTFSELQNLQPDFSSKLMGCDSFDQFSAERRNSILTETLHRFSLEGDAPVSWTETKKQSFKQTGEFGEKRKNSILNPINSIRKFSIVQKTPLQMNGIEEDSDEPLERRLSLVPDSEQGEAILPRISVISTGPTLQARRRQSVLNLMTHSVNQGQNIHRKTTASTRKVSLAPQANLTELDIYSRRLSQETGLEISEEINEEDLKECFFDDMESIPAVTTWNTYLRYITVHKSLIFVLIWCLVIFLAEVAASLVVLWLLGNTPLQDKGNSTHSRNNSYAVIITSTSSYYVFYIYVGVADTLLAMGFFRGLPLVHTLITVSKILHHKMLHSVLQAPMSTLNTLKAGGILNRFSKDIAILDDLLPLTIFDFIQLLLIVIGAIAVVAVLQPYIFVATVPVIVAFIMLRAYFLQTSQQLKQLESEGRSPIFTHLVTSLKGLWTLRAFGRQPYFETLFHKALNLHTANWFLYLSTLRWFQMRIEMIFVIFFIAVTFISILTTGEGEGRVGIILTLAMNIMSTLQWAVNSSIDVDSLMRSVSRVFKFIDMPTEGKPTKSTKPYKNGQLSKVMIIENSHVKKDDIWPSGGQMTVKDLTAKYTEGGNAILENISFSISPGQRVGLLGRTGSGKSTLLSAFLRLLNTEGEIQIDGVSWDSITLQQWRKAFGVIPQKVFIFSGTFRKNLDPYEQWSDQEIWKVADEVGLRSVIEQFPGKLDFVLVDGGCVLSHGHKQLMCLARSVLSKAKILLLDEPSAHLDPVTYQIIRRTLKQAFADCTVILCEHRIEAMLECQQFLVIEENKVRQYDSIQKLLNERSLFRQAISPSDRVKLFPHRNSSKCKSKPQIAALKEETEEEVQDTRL

“And” between values parts separate entries of the source, which are not always exact repeats. Identical values can stand only once. Screen size: about 10,000 compounds; about 15 (0.1%) were called active.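 Rule for the calls: active = highest signal at least 8 times the median of untreated cell-only control wells at some dose; inactive = the rest.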 The list is a sample of the results.

Assay [1] can be described thus: total CFTR protein upregulators, primary screen, cell-based, HeLa F508del-CFTR, immunofluorescence, viability (AID 1224863).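 For fold increase: total CFTR protein by anti-CFTR immunofluorescence in fixed cells.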 The settings on record: 24 h, stronger effect = higher value; min viability: measured here: HeLa viability, alamarBlue, dose 20, library dosed in µg/mL unless noted; viability: measured here: primary viability 10 ug/mL, library dosed in µg/mL unless noted. (In general: Alamar Blue is a resazurin reagent that responds to reducing activity.)

For assay [2], the target named is Cystic fibrosis transmembrane conductance regulator (Homo sapiens) (UniProt P13569). Described as above. The settings on record: 24 h; fold increase: measured here: primary screen 10 ug/mL, library dosed in µg/mL, stronger effect = higher value unless noted; max fold increase: dose 10, library dosed in µg/mL, stronger effect = higher value unless noted; outcome: library dosed in µg/mL unless noted.

In general, viability refers to a read-out of living cells in per cent, often relative to untreated cells. As for `N#Cc1ccc(CS(=O)(=O)N2CCCCCCC2)cc1`, the viability in assay [1] is 95%. In addition, in assay [2], the fold increase came out at 1.03 and the call was inactive.

As for `Nc1cnn(CCO)c1`, the viability in assay [1] came out at 92%. Besides, in assay [2], the fold increase stood at 0.96 and the call was inactive.

As to `CC(c1cc2ccccc2o1)N(C)Cc1noc(C(C)(C)C)n1` (stereo unspecified), in assay [1], the viability worked out at 89%. Moreover, in assay [2], the fold increase turned out to be 0.88 and the outcome was inactive.

Regarding `N#Cc1nncn1-c1ncnc2sc3c(c12)CCC3`, the viability in assay [1] amounted to 95%. In addition, in assay [2], the fold increase was 1.06 and the outcome was inactive.

Consider `CCNc1nc(C)nc2sc(CC)cc12`, for which the viability in assay [1] was 84%. Further, in assay [2], the fold increase was found to be 0.96 and the outcome was inactive.

As for `CCC(C)(C)NC(=O)CCNC(=O)/C=C/c1ccco1`, the viability in assay [1] amounted to 80%. In assay [2], the fold increase is 0.85 and the outcome was inactive.

For `CC(C)Sc1nc2cc(Cl)ccc2c(=O)n1CC1CCCO1` (stereo unspecified), the viability in assay [1] came out at 90%. For the same molecule, in assay [2], the fold increase was 0.87 and the outcome was inactive.

`CC(C)(C)N=C1NN=C(c2cccc(F)c2)CS1`: the viability in assay [1] turned out to be 75%. Moreover, in assay [2], the fold increase was found to be 0.85 and the molecule was called inactive.

For the molecule `Clc1ccc(-n2nnnc2SCCCc2nc3ccccc3o2)cc1`, the viability in assay [1] was determined as 84%. For the same molecule, in assay [2], the fold increase worked out at 0.85 and the result was inactive.

As to `Cc1nn(-c2ccccc2)c2c1CC(C#N)(c1nc3ccccc3s1)C1CCCN21` (stereo unspecified), in assay [1], the viability worked out at 89%. Besides, in assay [2], the fold increase was 1.29 and the molecule was called inactive.

On to `O=S(=O)(NCCc1ccc2c(c1)OCCO2)c1ccc2c(c1)CCC2`, for which, in assay [1], the viability stood at 95%. Besides, in assay [2], the fold increase worked out at 0.9 and the call was inactive.

On to `C=CCn1c(SC(C)c2nnnn2-c2ccccc2)nnc1-c1ccoc1C` (stereo unspecified), for which the viability in assay [1] was 93%. Also, in assay [2], the fold increase came out at 1.01 and the molecule was called inactive.

Take `Cc1nc(N2CCC(NS(C)(=O)=O)CC2)c2c3c(sc2n1)CCC3`: in assay [1], the viability was determined as 85%. Moreover, in assay [2], the fold increase came to 0.99 and the outcome was inactive.

Consider `CS(=O)(=O)CCC(=O)Nc1nc2c(s1)CCC2`, for which, in assay [1], the viability was 92%. In assay [2], the fold increase came out at 1.13 and the call was inactive.

With `O=S(=O)(c1ccc(S(=O)(=O)N(Cc2ccc3c(c2)OCO3)C2CCCC2)cc1)N1CCCC1`, the viability in assay [1] was found to be 98%. Moreover, in assay [2], the fold increase was determined as 0.96 and the call was inactive.

Regarding `CNC(=O)CN(C)c1ncnc2sc3c(c12)CCCC3`, in assay [1], the viability was determined as 94%. For the same molecule, in assay [2], the fold increase came to 1.01 and the outcome was inactive.

With `Nc1nccnc1C(=O)N1CCN(c2nccs2)CC1`, the viability in assay [1] stood at 79%. In assay [2], the fold increase came out at 1.03 and the outcome was inactive.

With `CC[C@H](C)[C@H]1O[C@]2(CC[C@@H]1C)C[C@@H]1C[C@@H](C/C=C(\C)[C@@H](O[C@H]3C[C@H](OC)[C@@H](O[C@H]4C[C@H](OC)[C@@H](O)[C@H](C)O4)[C@H](C)O3)[C@@H](C)/C=C/C=C3\CO[C@@H]4[C@H](O)C(C)=C[C@@H](C(=O)O1)[C@]34O)O2`, the viability in assay [1] was 25% [measured here: primary viability 25 uM, at 25 µM, library dosed in µM] and 48% [measured here: primary viability 25 uM, at 25 µM, library dosed in µM]. In addition, in assay [2], the fold increase was 0.61 [measured here: primary screen single dose 25 uM, at 25 µM, library dosed in µM, stronger effect = higher value] and 0.72 [measured here: primary screen single dose 25 uM, at 25 µM, library dosed in µM, stronger effect = higher value]; the outcome was “inactive [library dosed in µM]”.

Regarding `COCCN1C(=O)C(=O)/C(=C(/O)c2ccccc2)C1c1cccc(Oc2ccccc2)c1` (stereo unspecified), the viability in assay [1] was determined as 106%. In assay [2], the fold increase was determined as 0.99 and the outcome was inactive.

As for `Cc1cc(C(=O)Cn2nnn(-c3cccs3)c2=O)c(C)n1CCc1cccs1`, the viability in assay [1] is 91%. In addition, in assay [2], the fold increase worked out at 0.85 and the molecule was called inactive.

Turning to `O=C(CSc1nc(O)cc(=O)n1C1CCCC1)NC12CC3CC(CC(C3)C1)C2`, the viability in assay [1] worked out at 85%. Also, in assay [2], the fold increase was 0.96 and the call was inactive.

Regarding `CCSc1nnc(SC(C)c2ccc(F)cc2)s1` (stereo unspecified), in assay [1], the viability was 77%. For the same molecule, in assay [2], the fold increase is 0.8 and the result was inactive.

For `O=C(CC1CC2CCC1C2)N1CCN(c2cnccn2)CC1` (stereo unspecified), in assay [1], the viability came to 83%. In assay [2], the fold increase stood at 1 and the call was inactive.

As to `O=C(CC1CC2CCC1C2)Nc1cc(NC(=O)c2ccc3c(c2)OCO3)ccc1F` (stereo unspecified), in assay [1], the viability amounted to 78%. In addition, in assay [2], the fold increase worked out at 0.79 and the molecule was classed as inactive.

Turning to `CCc1nc2ccccc2n1CCOc1ccc(Br)cc1`, in assay [1], the viability came to 81%. Further, in assay [2], the fold increase was 0.89 and the molecule was called inactive.

For the molecule `COc1cc(F)c(S(=O)(=O)Nc2ccc3c(c2)OC2(CCCCC2)O3)cc1OC`, the viability in assay [1] stood at 85%. In assay [2], the fold increase stood at 0.93 and the molecule was classed as inactive.

`CCN(CC)S(=O)(=O)c1cc2c(cc1Br)NC(=O)CO2`: in assay [1], the viability amounted to 92%. In assay [2], the fold increase is 1.02 and the call was inactive.

With `CSCCSc1nnc(-c2ccccc2)n1-c1ccc(Cl)cc1`, the viability in assay [1] came to 81%. In assay [2], the fold increase is 0.92 and the call was inactive.

With `C=CCn1c(C)cc(C(=O)COc2ccc3oc4c(c3c2)CCCC4)c1C`, the viability in assay [1] stood at 84%. In assay [2], the fold increase turned out to be 0.97 and the outcome was inactive.

As to `N#CCSc1nc2sc3c(c2c(=O)n1C1CCCC1)CCCC3`, in assay [1], the viability is 80%. Besides, in assay [2], the fold increase is 0.98 and the molecule was called inactive.

With `CCOC(=O)C1SC(SCc2cc(C(=O)OC)c(C)o2)=NC1=O` (stereo unspecified), the viability in assay [1] was 99%. Moreover, in assay [2], the fold increase came out at 1.01 and the molecule was called inactive.

Consider `CN1C(=O)C(=O)N(CCOc2ccc(Cl)cc2Br)C1=O`, for which, in assay [1], the viability was found to be 90%. Further, in assay [2], the fold increase is 0.98 and the molecule was classed as inactive.

As to `Clc1ccc(-c2csc(NC3CC3)n2)cc1Cl`, the viability in assay [1] was 99%. For the same molecule, in assay [2], the fold increase amounted to 0.91 and the result was inactive.

On to `CC(c1nc(C(C)(C)C)no1)N1CCN(c2ccccc2F)CC1` (stereo unspecified), for which, in assay [1], the viability came to 87%. Besides, in assay [2], the fold increase amounted to 0.89 and the molecule was classed as inactive.

As to `CC(=O)c1c(C)[nH]c(C(=O)C(C)N2CCN(C(=O)C3CC3)CC2)c1C` (stereo unspecified), the viability in assay [1] was 78%. In assay [2], the fold increase was 0.82 and the molecule was called inactive.

Turning to `CS(=O)(=O)N1CCN(c2ccc(Br)cc2[N+](=O)[O-])CC1`, in assay [1], the viability is 103%. Besides, in assay [2], the fold increase came out at 0.92 and the molecule was called inactive.

As to `Cc1cc(C(=O)OC(C)C(N)=O)c(C)n1CC(F)(F)F` (stereo unspecified), in assay [1], the viability was 88%. For the same molecule, in assay [2], the fold increase amounted to 1.05 and the result was inactive.
